Experiments:
Homo sapiens [1] = species: Homo sapiens; test: Selectivity index, ratio of binding affinity to PDPK1 PH-domain (unknown origin) by SPR spectroscopy to binding affinity to CNKSR1 PH-domain (unknown origin) by SPR spectroscopy
Homo sapiens [2] = species: Homo sapiens; test: Selectivity index, ratio of binding affinity to AKT PH-domain (unknown origin) by SPR spectroscopy to binding affinity to CNKSR1 PH-domain (unknown origin) by SPR spectroscopy
Homo sapiens [3] = species: Homo sapiens; test: Selectivity index, ratio of binding affinity to TIAM1 PH-domain (unknown origin) by SPR spectroscopy to binding affinity to CNKSR1 PH-domain (unknown origin) by SPR spectroscopy

Measured: Ratio

CCOC(=O)Cc1nn(Cc2nc(-c3ccc(C)cc3)cs2)c(=O)c2ccccc12
50 to 100: all assays above
